According to US20060029743A1, “Wood preservatives and methods of wood preservation” (priority 2004, published 2006):

How the values were obtained:
Experiment in all cases: 6-well plate assay, minimal inhibitory concentration
Assay type in all cases: cell-based
Conditions in all cases: 6-well agar plate; lowest concentration with no growth after seven days
[1] = system: Chaetomium globosum
Method: (§1) The minimal inhibitory concentration of fungicides against eight fungi was determined in 6-well microtiter plates. Minimal inhibitory concentration is defined as the lowest concentration at which no fungus growth is evident after seven days. A group of eight fungi were used in a screen to identify potential active ingredients to preserve wood. The eight fungi, their classification, and the growth media used to culture them are listed below:
(§2) Growth media were purchased from Difco (from Beckton Dickinson and Co., Sparks, Md.). The growth media were added to water to 2% w/v and autoclaved at 121° C. for 30 min. Autoclaved media were allowed to cool down to ˜50° C. Test chemicals were dissolved in DMSO (dimethyl sulfoxide) individually at 10 mg/mL to generate stock solutions. An appropriate amount of a stock solution was then added to the appropriate growth medium at 50° C. to make up the test media containing various concentrations of individual test chemicals. 10 mL of the medium was added to each well of a 6-well plate and allowed to solidify at room temperature. For each plate, the first well had no chemical, and the remaining five wells contained a particular test chemical at five different concentrations. Eight such plates were prepared for each chemical, using the eight media listed above for the eight test organisms.
(§3) After the media solidified and cooled, a plug (˜2 mm×2 mm) of agar growth medium with fresh grown mycelium from the appropriate fungal culture was used to inoculate each well. The plate was placed in an incubator, and the growth of the fungus monitored. After 4 to 7 days, the growth was scored manually.

[2] = system: Irpex lacteus
Method: as §1, §2, §3

[3] = system: Antrodia vaillantii
Method: as §1, §2, §3

[4] = system: Gloeophyllum trabeum
Method: as §1, §2, §3

[5] = system: Postia placenta
Method: as §1, §2, §3

[6] = system: Phanerochaete chrysosporium
Method: as §1, §2, §3

[7] = system: Trametes versicolor
Method: as §1, §2, §3

SMILES: CCOc1nc(C(Cl)(Cl)Cl)ns1 [Terrazole]
- Effectiveness at Inhibiting Wood-Rotting Fungi, SR1 (minimal inhibitory concentration) [1]: 3 (“3” indicates inhibition (if any) only at >100 ppm)
- Effectiveness at Inhibiting Wood-Rotting Fungi, WR2 (minimal inhibitory concentration) [2]: 1 (“1” indicates effective inhibition at 1 ppm or less)
- Effectiveness at Inhibiting Wood-Rotting Fungi, BR3 (minimal inhibitory concentration) [3]: 2 (“2” indicates inhibition at about 1-100 ppm)
- Effectiveness at Inhibiting Wood-Rotting Fungi, BR2 (minimal inhibitory concentration) [4]: 3 (“3” indicates inhibition (if any) only at >100 ppm)
- Effectiveness at Inhibiting Wood-Rotting Fungi, BR1 (minimal inhibitory concentration) [5]: 3 (“3” indicates inhibition (if any) only at >100 ppm)
- Effectiveness at Inhibiting Wood-Rotting Fungi, WR3 (minimal inhibitory concentration) [6]: 1 (“1” indicates effective inhibition at 1 ppm or less)
- Effectiveness at Inhibiting Wood-Rotting Fungi, WR1 (minimal inhibitory concentration) [7]: 1 (“1” indicates effective inhibition at 1 ppm or less)
